The values below are quoted from earlier work in patent US20130209578A1, “Combinatory Cancer Treatment” (UNIVERSITE DE MONTREAL, priority 2010, published 2013).

The test system of the data set is acute myeloid leukemia (AML). To be noted: ribavirin monotherapy; cited from earlier work.

As for `NC(=O)c1ncn([C@@H]2O[C@H](CO)[C@@H](O)[C@H]2O)n1` [ribavirin, 1-[(2R,3R,4S,5R)-3,4-dihydroxy-5-(hydroxymethyl)oxolan-2-yl]-1H-1,2,4-triazole-3-carboxamide], the treatment-related toxicities entry is recorded as “no treatment-related toxicities are observed”.
